The test system of this assay is 4T1-luciferase tumor. Briefly: 4T1-luciferase tumor model: IR with compound 1, cGAMP and/or anti-CTLA-4; tumor volume and survival. Type of assay: in vivo, Balb/c mice.
[1] abbreviates: 20 Gy IR + compound 1 in addition to cGAMP, intratumoral.

Each structure is given as a SMILES string.

In the case of `COc1cc2ncnc(N3CCC(CCP(=O)(O)O)CC3)c2cc1OC` [compound 1], the tumor shrinkage result by setting is: (20 Gy IR + compound 1 (100 μL of 100 μM intratumoral, day 2, 4, 7)) “enhanced tumor shrinkage effects of IR treatment, although not significantly”; under setting [1], “synergistically shrunk tumors”. The survival entry under setting [1] is given as “prolonged survival”; the survival entry (without IR, anti-CTLA-4 and compound 1 (1 mM intratumoral)) is listed as “no effect on prolonging survival”. For the same compound, the “anti-tumor effect (survival)” value (IR pretreatment with compound 1 and anti-CTLA-4) is on record as “significant synergistic effects”.

The values are drawn from patent US20240374724A1, “ENPP1 INHIBITORS AND IMMUNE CELLS EXPRESSING CHIMERIC ANTIGEN RECEPTORS” (Angarus Therapeutics, Inc., priority 2021, published 2024).
